Source: US20010003002A1

Columns and labels:
[1] = for Level of serum calcium, change after administration: 500 mg calcium oral after overnight fast, 4 h after load vs just before load, FIG. 1, mg/dl; for Level of urinary calcium, change after administration: urine 4 h after load vs two-hour fasting urine, FIG. 2, mg/dl GF
[2] = Bulk density of granulated PCC composition (Archimedean method); details: granulated material; examples written in present tense (paper examples)

calcium citrate
Level of serum calcium, change after administration [1]: increased
Level of urinary calcium, change after administration ([1]; 500 mg calcium oral): increased

potassium calcium citrate
Level of serum calcium, change after administration [1]: increased
Experimental value of serum calcium versus placebo ([1]; 500 mg calcium oral, 4 h after load, FIG. 1): Significantly higher
Level of urinary calcium, change after administration ([1]; 500 mg calcium oral): increased
Experimental value of urinary calcium versus placebo ([1]; 500 mg calcium oral, urine 4 h after load, FIG. 2): Significantly higher
Bulk density [2]: about 1.05 g/cc
